Where “and” joins values, the source holds several entries; their conditions need not be identical. Equal entries are not always repeated. Where two headings read alike, the source gives them in different places.
Settings: 33.3 mg/kg; for CLT: I.V.; for Ka (first order absorption rate constant): P.O.
[1] = individual monkeys (RUh, RMi, RJd)

## Nc1nc(=O)n([C@@H]2CS[C@H](CO)O2)cc1F (racemic) [(±)-FTC, (±)-β-D,L-2-hydroxymethyl-5-(5-fluorocytosin-1-yl)-1,3-oxathiolane]
[1]
  CLT: 21 mL/min/kg and 24.7 mL/min/kg and 29 mL/min/kg
  Ka (first order absorption rate constant): 0.48 h−^1 and 0.43 h−^1 and 0.31 h−^1
mean
  CLT: 24.8 mL/min/kg
  Ka (first order absorption rate constant): 0.41 h−^1
